We go through one compound from patent US20240350494A1, “THERAPEUTIC MODULATION OF INTEGRINS” (Pliant Therapeutics, Inc., priority 2021, published 2024).

In this test the test system is Type I Collagen gene Col1a1 expression. In words: Precision cut lung slices, acute bleomycin exposure, Col1a1 expression. The test is classed as cell-based, mice (C57BL/6). As for the experimental part:
Mice (C57BL/6) were administered 3 U/kg of bleomycin (Teva Pharmaceuticals; North Wales, PA) on day 0 via oropharyngeal aspiration while under anesthesia. On day 14, precision cut lung slices were obtained. Following euthanization, 2% low gelling temp agarose was injected into the mouse lungs via the trachea. […] The lobes were then subjected to precision slicing to obtain samples for culture using a microtome (Compresstome VF-300-OZ, Precisionary; Greenville, NC). Individual slices were distributed in a multiwell culture plate and cultured for 3 days under control (DMSO) and test compound conditions.

SMILES strings stand for the structures.

In the case of `Cc1cc(C)n(-c2cccc([C@H](CC(=O)O)CN3CC[C@H](CCc4ccc5c(n4)NCCC5)C3)c2)n1` [first pan-αV small molecule inhibitor, (3S)-3-[3-(3,5-dimethyl-1H-pyrazol-1-yl)phenyl]-4-{(3S)-3-[2-(5,6,7,8-tetrahydro-1,8-naphthyridin-2-yl)ethyl]-1-pyrrolidinyl}butanoic acid], the “Type I Collagen gene Col1a1 expression, normalized to DMSO control slices” value was “decreased Type I Collagen gene Col1a1 expression comparably”.
